Data on 1 compound can be found in ChEMBL document CHEMBL1144431, “6-Hydroxy-1,2,3,4-tetrahydro-isoquinoline-3-carboxylic acid mimics active conformation of tyrosine in opioid peptides” (Bioorg Med Chem Lett, 2005).

Sequences of proteins named here, by UniProt entry; tags and fusion partners are left off.
UniProt P33535, whole entry: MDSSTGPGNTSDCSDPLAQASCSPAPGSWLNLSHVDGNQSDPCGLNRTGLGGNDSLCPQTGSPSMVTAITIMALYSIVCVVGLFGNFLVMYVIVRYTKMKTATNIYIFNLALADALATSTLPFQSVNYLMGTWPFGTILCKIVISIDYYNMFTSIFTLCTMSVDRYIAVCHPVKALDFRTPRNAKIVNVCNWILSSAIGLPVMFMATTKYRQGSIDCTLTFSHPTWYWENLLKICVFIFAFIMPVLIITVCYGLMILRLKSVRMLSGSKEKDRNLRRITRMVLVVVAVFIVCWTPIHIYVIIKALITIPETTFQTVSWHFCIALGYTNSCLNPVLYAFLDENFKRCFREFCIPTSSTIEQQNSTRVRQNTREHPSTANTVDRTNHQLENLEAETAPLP

For the assay, the target named is Mu-type opioid receptor (Rattus norvegicus, UniProt P33535). Put plainly: Inhibition of [3H]naloxone binding to rat brain homogenate Opioid receptor mu.

In general, Ki refers to the equilibrium dissociation constant of an inhibitor or competing ligand from its target. Low values mean a stronger hold on the target, high ones a looser hold on the target.

Compound `C[C@@H](NC(=O)[C@@H](N)Cc1ccc(O)cc1)C(=O)N[C@@H](Cc1ccccc1)C(=O)N[C@@H](Cc1ccccc1)C(N)=O` had a Ki of 5.1 nM.
